Bioassay records (PubChem BioAssay)
E-selectin induc: E-selectin induction in HUVECs, primary screen, imaging, HUVEC, immunofluorescence imaging, single point; P16581; 260,000 compounds, 0.37% hits; activation, % at 7.58 µM; normalized: neutral wells 0, TNF-alpha wells 100;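 active = mean E-selectin-positive cell signal at least 10% of the positive control, reached in at least 60% of replicates, without over 20% cell loss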
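assay system = HUVEC, human umbilical vein endothelial cells | input = 3,000 HUVEC seeded per well | medium = EGM-2 growth medium on 0.1% gelatin-coated wells | dosing = one compound dose added by pin transfer | signal = immunofluorescence imaging | read-out basis = % PE-positive cells | control set = TNF-alpha, DMSO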
ARNT-TACC3 inh: disruptors of ARNT/TACC3 protein interaction, primary screen, biochemical, AlphaScreen, single concentration; Transforming acidic coiled-coil-containing protein 3 (Homo sapiens), Q9Y6A5; inhibition, % at 9.99 µM; AID 623870, 2012; AlphaScreen His-ARNT PAS-B/GST-TACC3 binding, luminescence; TACC3 fragment carries E629A point mutation; 390,000 compounds, 0.66% hits;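 active = mean inhibition of replicates at least 50% and at least half of replicates each reaching 50%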;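 also: 0% = complete ARNT plus TACC3 wells and 100% = ARNT alone without TACC3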
MLL AF4-AF9 inh: inhibitors of AF4 peptide binding to AF9, primary screen, biochemical, AlphaScreen, biotin-AF4 peptide, FLAG-AF9, single point; 350,000 compounds, 0.47% hits; inhibition, % at 10 µM; AID 651704, 2012; Protein AF-9 (Homo sapiens), P42568;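 active = every replicate reaching a set inhibition limit, whatever the replicate mean, cut at about 25% in these data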;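 also: 0% = plate neutral control median and 100% = total signal loss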
ERAP1 HTS inh: human ERAP1 aminopeptidase inhibitors, primary screen, biochemical, single point, plate reader. Endoplasmic reticulum aminopeptidase 1 (Homo sapiens), Q9NZ08. recombinant ERAP1, Leu-AMC fluorescence, 60 min. inhibition, % at 10.7 µM. 340,000 compounds, 0.15% hits. AID 652197, 2013;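 active = mean replicate inhibition of at least 30%, or all replicates individually reaching that 30% level; inactive = mean below 30% and not every replicate reaching it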;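 also: 0% = neutral control wells and 100% = L-leucinethiol positive control wells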
UUG fidelity: alters start codon recognition fidelity in yeast | S. cerevisiae UUG-firefly luciferase reporter, luminescence/redox ratio | activity score, % at 18.7 µM | 350,000 compounds, 0.13% hits | AID 602363;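 active = replicate mean at a twofold rise or more, about +100% in these data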;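 note: firefly luciferase made from a UUG start codon reports start codon fidelity; reporter light over untreated wells divided by growth signal over untreated wells; some hits fall short of that in this replicate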
S100A4 inh HTS: inhibitors of S100A4-myosin IIA peptide binding, primary screen, biochemical, fluorescence polarization, TAMRA-MyoIIA peptide; Protein S100-A4 (Homo sapiens), P26447; inhibition, % at 10.7 µM; 360,000 compounds, 0.14% hits;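 active = mean inhibition of at least 70% across replicates, with every replicate also reaching that level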
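Test system – S100A4 monomer (human) · Compound – single-point compound testing · Schedule – 5 min incubation before reading · Probe or stimulus – TAMRA-labelled myosin IIA heavy-chain peptide probe, 5 nM · Benchmarks – neutral control DMSO, positive control TFP · Medium – Calcium-containing HEPES buffer, pH 7.2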
Active calls of the source: *; nt = no result; + = active, no number. The list is not random: actives were taken first. Their share in the collection is about 1.3%.

Chains of the proteins cited; added tags and fusions are not shown.
Protein AF-9 (Homo sapiens), P42568, UniProt P42568, whole entry, looked up: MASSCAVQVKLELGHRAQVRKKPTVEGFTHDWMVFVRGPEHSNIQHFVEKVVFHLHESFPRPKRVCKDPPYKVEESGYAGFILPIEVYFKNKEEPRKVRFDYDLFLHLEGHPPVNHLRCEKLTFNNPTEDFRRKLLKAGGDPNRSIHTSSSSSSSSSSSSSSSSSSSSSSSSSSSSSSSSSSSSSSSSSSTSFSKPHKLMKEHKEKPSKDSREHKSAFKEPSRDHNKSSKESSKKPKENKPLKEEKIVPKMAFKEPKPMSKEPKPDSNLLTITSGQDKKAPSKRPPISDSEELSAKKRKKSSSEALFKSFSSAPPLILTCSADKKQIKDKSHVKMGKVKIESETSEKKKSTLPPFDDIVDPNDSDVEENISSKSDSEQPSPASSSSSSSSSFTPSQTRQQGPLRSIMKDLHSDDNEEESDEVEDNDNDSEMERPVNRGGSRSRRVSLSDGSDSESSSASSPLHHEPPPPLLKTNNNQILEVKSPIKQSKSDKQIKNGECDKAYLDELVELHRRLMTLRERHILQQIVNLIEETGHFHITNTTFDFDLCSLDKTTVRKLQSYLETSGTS

Structure	E-selectin induc	ARNT-TACC3 inh	MLL AF4-AF9 inh	ERAP1 HTS inh	UUG fidelity	S100A4 inh HTS
CNC(=O)/C(C#N)=C\c1ccc(CNS(=O)(=O)c2ccc(Cl)cc2)o1	2	0	-2	33*	nt	-2
O=C(O)c1cc([N+](=O)[O-])ccc1Nc1ccccc1	nt	0	28*	6	-3	2
O=C1C=CC(=O)c2c(O)c(CO)c(CO)c(O)c21	nt	12*	4	-1	nt	1
COc1cc(C(=O)O)nc2ccccc12	nt	58*	nt	nt	-6	nt
COc1ccc(NC(=O)N(C)C[C@H]2OCCCC[C@H](C)Oc3ccc(NS(=O)(=O)c4ccc(C)cc4)cc3C(=O)N([C@H](C)CO)C[C@@H]2C)cc1	nt	-2	-6	3	-5	-49
C[C@@H]1CCCCO[C@H](CN(C)C(=O)C2CCCCC2)[C@H](C)CN([C@H](C)CO)C(=O)c2cc(NC(=O)CCC(F)(F)F)ccc2O1	0	-5	2	-6	18	3
Nc1nc(NCC2CCCO2)nc(Nc2ccccc2)c1[N+](=O)[O-] (stereo not drawn)	0	-5	3	-2	-11	-5
Nc1nc(NCC2CCCO2)nc(Nc2cccc(F)c2)c1[N+](=O)[O-] (stereo not drawn)	4	-13	31*	2	nt	1
On1ccccc1=S	0	+	6	23	-58	0
O=C(Cn1ccccc1=S)c1ccc(Cl)c(Cl)c1	2	nt	1	4	-24	9
CCS(=O)(=O)N(C)C[C@@H]1N[C@H](CO)[C@@H]1c1ccc(C2=CCCCC2)cc1	0	nt	-3	-2	nt	15
COc1ccc(CCn2c(=O)c3cccnc3n(Cc3cccc([N+](=O)[O-])c3)c2=O)cc1OC	27*	5	7	6	nt	2
C/C(=N\NC(=O)c1cc(-c2ccccc2C)nc2ccccc12)c1cccnc1	50*	1	3	3	-12	-1
C/C(=N\NC(=O)c1cc(-c2ccc(C)s2)nc2ccccc12)c1cccnc1	nt	3	-1	-3	1	-6
COc1ccnc(CSC(N)=Nc2ccccc2OC)c1	nt	62*	nt	nt	-18	nt
COc1ccnc(CSC(N)=Nc2ccccc2C(F)(F)F)c1	nt	26	1	-1	nt	0

5 records picked at random from those above:
Structure	E-selectin induc	ARNT-TACC3 inh	MLL AF4-AF9 inh	ERAP1 HTS inh	UUG fidelity	S100A4 inh HTS
CCS(=O)(=O)N(C)C[C@@H]1N[C@H](CO)[C@@H]1c1ccc(C2=CCCCC2)cc1	0	nt	-3	-2	nt	15
COc1ccnc(CSC(N)=Nc2ccccc2C(F)(F)F)c1	nt	26	1	-1	nt	0
COc1ccc(CCn2c(=O)c3cccnc3n(Cc3cccc([N+](=O)[O-])c3)c2=O)cc1OC	27*	5	7	6	nt	2
C/C(=N\NC(=O)c1cc(-c2ccccc2C)nc2ccccc12)c1cccnc1	50*	1	3	3	-12	-1
On1ccccc1=S	0	+	6	23	-58	0

Further results follow:
Structure	E-selectin induc	ARNT-TACC3 inh	MLL AF4-AF9 inh	ERAP1 HTS inh	UUG fidelity	S100A4 inh HTS
COCC(=O)N1CC2(CCN(Cc3ccccc3Cl)CC2)c2c([nH]c3cc(OC)ccc23)[C@H]1CO	1	nt	11	-1	nt	85*
CCC(=O)N1CC2(CCN(Cc3ccc(Cl)cc3)CC2)c2c([nH]c3cc(OC)ccc23)[C@@H]1CO	0	nt	26*	nt	nt	nt
COc1ccc2c3c([nH]c2c1)[C@H](CO)N(C(C)=O)CC31CN(Cc2ccccc2Cl)C1	0	nt	26*	-1	nt	-9
CCCNC(=O)N1CC2(CCN(C(=O)C3CCCC3)CC2)c2c([nH]c3cc(OC)ccc23)[C@@H]1CO	nt	nt	-3	-3	nt	10
CCCNC(=O)N1CC2(CCN(C(=O)C3CCC3)CC2)c2c([nH]c3cc(OC)ccc23)[C@@H]1CO	0	nt	44*	nt	nt	nt
O=C(C[C@H]1CC[C@@H]2[C@H](COC[C@@H](O)CN2C(=O)c2ccccn2)O1)NC1CCC1	0	10	-1	1	nt	11
C[C@H](CO)N1C[C@H](C)[C@H](CN(C)S(=O)(=O)c2cccc(F)c2)Oc2ncccc2C1=O	0	-1	-7	1	-4	-6
COc1cc(/C=C/C(=O)OCC(=O)N2CCCCCC2)ccc1OCC#N	0	1	-1	-2	-1	-3

Next part.
Value order: E-selectin induc, ARNT-TACC3 inh, MLL AF4-AF9 inh, ERAP1 HTS inh, UUG fidelity, S100A4 inh HTS
COc1cc(/C=C/C(=O)OCC(=O)N2CCCC2)ccc1OCC#N
→ nt, 3, 31*, 11, -11, 16
Nc1nc(-c2ccccc2)cn1N
→ nt, 48*, nt, nt, -31, nt
Nc1nc(-c2ccccc2)cn1/N=C/c1ccccc1
→ 2, 4, 3, 6, -16, -1
O=C(CCN1CCN(C(c2ccccc2)c2ccccc2)CC1)N/N=C/c1ccc(O)cc1O
→ 0, 45*, nt, nt, nt, nt
Cc1ccc(NC(=O)CCC(=O)N/N=C/c2cc([N+](=O)[O-])ccc2O)cc1
→ 0, 9, nt, nt, -22, nt
Cc1ccc(C)c(NC(=O)CCC(=O)N/N=C/c2cc([N+](=O)[O-])ccc2O)c1
→ nt, 49*, 0, 0, -12, -1
O=C(CCN1CCN(C(c2ccccc2)c2ccccc2)CC1)N/N=C/c1ccc(O)cc1
→ nt, -9, nt, nt, nt, nt
CN1CCN(CCC(=O)N/N=C/c2cc([N+](=O)[O-])ccc2O)CC1
→ nt, 75*, nt, nt, nt, nt
Cc1ccccc1NC(=O)CCC(=O)N/N=C/c1cc([N+](=O)[O-])ccc1O
→ nt, 22, nt, nt, -13, nt
O=S(=O)(O)c1cccc2c(N=Nc3ccc(O)c4ncccc34)cccc12
→ nt, 73*, nt, 15, -12, 6
Cc1ccccc1N=Nc1ccc(O)c2ncccc12
→ -1, -5, 2, 9, -12, -3
COc1ccc2oc(C(=O)NCC(c3ccco3)N(C)C)c(C)c2c1 (stereo not drawn)
→ nt, 3, 35*, 2, 7, 15
Cc1ccc(S(=O)(=O)Nc2ccc3c(c2)C(=O)N([C@@H](C)CO)C[C@@H](C)[C@H](CN(C)S(=O)(=O)c2cn(C)cn2)O3)cc1
→ 0, 10, 2, 1, -5, 4
COc1ccc(S(=O)(=O)N(C)C[C@@H]2Oc3ccc(NC(=O)c4ccncc4)cc3C(=O)N([C@H](C)CO)C[C@@H]2C)cc1
→ 18, -4, -1, -1, 9, -12
COc1ccc(S(=O)(=O)N(C)C[C@H]2Oc3ccc(NC(=O)c4ccncc4)cc3C(=O)N([C@@H](C)CO)C[C@@H]2C)cc1
→ 47*, -7, -3, -2, 2, 8
Cc1ccc(S(=O)(=O)N(C)C[C@@H]2Oc3ccc(NC(=O)c4ccncc4)cc3C(=O)N([C@H](C)CO)C[C@@H]2C)cc1
→ 2, -5, 0, -1, 1, -22
COc1ccc(S(=O)(=O)N(C)C[C@H]2Oc3ccc(NC(=O)c4ccncc4)cc3C(=O)N([C@H](C)CO)C[C@H]2C)cc1
→ 28*, -8, -3, 0, -3, 6
O=c1[nH][nH]cc1C=Nc1cc(Cl)ccc1O
→ nt, 49*, -1, 8, nt, 0
Cc1cccc(NC(=O)Cn2c(/C=C/c3ccccc3)nc3ccccc32)c1
→ 2, 48*, 1, 1, nt, 6
COc1ccc(C)cc1NC(=O)C(NCC(O)c1ccccc1)c1ccccc1 (stereo not drawn)
→ 52*, 0, 0, 1, -7, 8
